{"source": "patent US11026906B2", "about": "“Pharmaceutical quality strontium L-lactate” (priority 2016, dated 2021)", "conditions": "men and women, oral; comparator data from U.S. Pat. No. 7,595,342"}
{"smiles": "C[C@H](O)C(=O)[O-].C[C@H](O)C(=O)[O-].[Sr+2]", "note": "[strontium L-lactate]", "values": [{"measurement": "absorption compared with strontium ranelate", "value": "more rapidly and efficiently absorbed"}]}
